pEC50, pIC50: −log10 of the molar value.
What was measured:
Btk = Btk (Homo sapiens, UniProt Q06187); assay: Btk inhibition; type: biochemical
[1] = molecular target: auto-phosphorylation site on BTK (Tyr223) (Homo sapiens, UniProt Q06187); assay: Inhibition of BTK auto-phosphorylation (Tyr223) in Ramos cells; type: cell-based; details: human Burkitt lymphoma cell line, read-out: effective concentration required for 50% inhibition (EC50) of phosphorylation of BTK (Tyr223)

The chains behind the UniProt entries cited, without tags or fusion partners. Where a name states a change or a piece, a line headed by the entry shows the natural chain unless it says otherwise.
UniProt Q06187: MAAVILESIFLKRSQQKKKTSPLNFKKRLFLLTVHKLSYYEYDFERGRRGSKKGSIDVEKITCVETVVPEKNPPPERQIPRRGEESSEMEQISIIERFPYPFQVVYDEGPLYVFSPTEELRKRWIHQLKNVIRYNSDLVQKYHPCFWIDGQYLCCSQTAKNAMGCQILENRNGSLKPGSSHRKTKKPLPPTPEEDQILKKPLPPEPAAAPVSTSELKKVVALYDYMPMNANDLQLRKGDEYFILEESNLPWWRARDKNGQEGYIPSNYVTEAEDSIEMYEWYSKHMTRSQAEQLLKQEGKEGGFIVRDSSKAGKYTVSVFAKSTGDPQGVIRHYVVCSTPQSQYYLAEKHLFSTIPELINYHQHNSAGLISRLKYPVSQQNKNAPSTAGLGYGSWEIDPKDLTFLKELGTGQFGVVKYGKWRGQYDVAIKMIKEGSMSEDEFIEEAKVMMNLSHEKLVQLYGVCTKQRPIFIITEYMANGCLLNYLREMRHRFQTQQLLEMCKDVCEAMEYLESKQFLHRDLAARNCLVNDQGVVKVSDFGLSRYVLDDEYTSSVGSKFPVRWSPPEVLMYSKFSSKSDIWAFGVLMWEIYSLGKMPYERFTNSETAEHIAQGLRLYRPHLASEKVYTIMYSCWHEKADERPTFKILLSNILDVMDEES

C=CC(=O)Nc1cccc(Nc2nc(Nc3ccc(OCCOC)cc3)ncc2F)c1.O=S(=O)(O)c1ccccc1 [Compound 1 besylate, N-(3-(5-fluoro-2-(4-(2-methoxyethoxy)phenylamino)pyrimidin-4-ylamino)phenyl)acrylamide benzenesulfonic acid salt]
pIC50 (Btk): > 9.30

C=CC(=O)Nc1cccc(Nc2nc(Nc3ccc(OCCOC)cc3)ncc2F)c1 [Compound 1, N-(3-(5-fluoro-2-(4-(2-methoxyethoxy)phenylamino)pyrimidin-4-ylamino)phenyl)acrylamide]
pEC50 [1]: 8.00 to 9.00

Reference: US20140142129A1, “METHODS OF TREATING A DISEASE OR DISORDER ASSOCIATED WITH BRUTON'S TYROSINE KINASE” (Celgene Avilomics Research, Inc,, priority 2012, published 2014)
